Chains of the proteins cited; added tags and fusions are not shown. Residues count along the entry.
UniProt Q9QYJ6, 24-794: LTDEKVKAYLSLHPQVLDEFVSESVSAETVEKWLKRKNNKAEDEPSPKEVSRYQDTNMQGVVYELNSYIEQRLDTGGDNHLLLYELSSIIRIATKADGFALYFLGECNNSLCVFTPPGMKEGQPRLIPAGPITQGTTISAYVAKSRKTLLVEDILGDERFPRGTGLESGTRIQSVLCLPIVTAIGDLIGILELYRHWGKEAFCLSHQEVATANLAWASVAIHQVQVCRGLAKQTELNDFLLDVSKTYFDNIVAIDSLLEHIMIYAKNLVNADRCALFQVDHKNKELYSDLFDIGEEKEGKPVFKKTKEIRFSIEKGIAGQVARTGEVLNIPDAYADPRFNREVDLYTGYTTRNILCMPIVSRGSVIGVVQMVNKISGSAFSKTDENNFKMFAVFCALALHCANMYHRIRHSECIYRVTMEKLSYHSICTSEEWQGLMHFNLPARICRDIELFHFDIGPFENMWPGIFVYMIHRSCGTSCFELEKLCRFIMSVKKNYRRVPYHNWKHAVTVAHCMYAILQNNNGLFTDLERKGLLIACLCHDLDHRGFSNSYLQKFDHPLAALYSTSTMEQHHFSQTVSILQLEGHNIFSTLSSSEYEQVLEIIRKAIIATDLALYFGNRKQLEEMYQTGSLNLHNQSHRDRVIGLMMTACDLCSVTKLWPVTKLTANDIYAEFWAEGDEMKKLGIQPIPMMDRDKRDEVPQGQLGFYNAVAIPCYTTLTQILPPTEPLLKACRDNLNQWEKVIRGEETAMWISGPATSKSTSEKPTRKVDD

In patent US8933224B2, “Triazine derivatives” (Pfizer Inc., priority 2013, dated 2015):

Assays:
rat PDE10 enzyme = rat PDE10 enzyme (Rattus norvegicus (Rat), UniProt Q9QYJ6); test: PDE10 scintillation proximity assay (SPA), inhibition of rat PDE10 enzyme activity; type: biochemical; settings: geometric mean of 2-4 determinations unless otherwise indicated (b: ≧5 determinations; c: single determination)
Method: The products of Examples 1-175 were tested in the assay described below.
(§1) PDE10 activity was measured using a scintillation assay (SPA-based method) similar to that previously described by Seeger, T. F. et al., Brain Research 985 (2003) 113-126. The compounds' relative activity as PDE10 inhibitors was investigated by assaying a fixed amount of enzyme in the presence of the test compound and low substrate concentration (cAMP) such that an IC50 could be determined. […] The assay is performed in a 384-well format with 50 μL assay buffer (50 mM TRIS pH 7.5; 1.3 mM MgCl2; 0.01% Brij) containing enough PDE10 to convert ˜20% of 20 nM ^3H-cAMP, and a range of inhibitors. Reactions are incubated for 30 minutes at 25° C. The addition of 20 μL of 8 mg/ml yttrium silicate SPA beads (PerkinElmer) stops the reaction. The plates are sealed (TopSeal, PerkinElmer) and the beads are allowed to settle for 8 hrs, after which they are read on the Trilux Microbeta overnight. ^1Rat enzyme preparation:^2Human enzyme preparation:
The recombinant Bacmid was isolated and used to transfect sf9 insect cells to generate a viral stock. To generate cell paste for purification, sf21 cells were infected with the virus stock and cells were harvested 72 hours after infection as described in Seeger, T. F. et al., Brain Research 985 (2003) 113-126. Insect cell paste was lysed and after centrifugation, the supernatant was chromatographed on Ni-NTA agarose (Qiagen) followed by Mono Q (GE Healthcare Life Sciences) as described in Seeger, T. F. et al., Brain Research 985 (2003) 113-126.

[1] = target: human recombinant PDE10 enzyme (PDE10A) (Homo sapiens, UniProt Q9Y233); test: PDE10 scintillation proximity assay (SPA), inhibition of human recombinant PDE10 enzyme activity; type: biochemical; settings: geometric mean of 2-4 determinations unless otherwise indicated (b: ≧5 determinations; c: single determination)
Method: as §1
Human PDE10A coding sequence (amino acids 21 to 797 from the sequence with accession number NP_001124162.1) was synthesized using codon optimization for insect expression and cloned into the baculovirus expression vector pFastBac (Invitrogen) engineered to include a N-terminal His6 affinity tag to aid in purification as described in Seeger, T. F. et al., Brain Research 985 (2003) 113-126. The recombinant Bacmid was isolated and used to transfect sf9 insect cells to generate a viral stock. To generate cell paste for purification, sf21 cells were infected with the virus stock and cells were harvested 72 hours after infection as described in Seeger, T. F. et al., Brain Research 985 (2003) 113-126. Insect cell paste was lysed and after centrifugation, the supernatant was chromatographed on Ni-NTA agarose (Qiagen) as described in Seeger, T. F. et al., Brain Research 985 (2003) 113-126. Ni-NTA agarose eluting fractions containing PDE10A were chromatographed on Superdex 200 (GE Healthcare Life Sciences) in 50 mM Tris HCl pH 7.5, 150 mM NaCl, 1 mM EDTA, 10% glycerol, 2 mM TCEP, 1.5 mM benzamidine, EDTA-free protease inhibitors (Roche), and 5 μM E-64.

SMILES | IC50 (rat PDE10 enzyme) | IC50 [1]
COc1nc(C)nc2c1CN(c1ncnn3c(C)nc([C@@H]4CCOC4)c13)CC2 [Example 37, 4-methoxy-2-methyl-6-{7-methyl-5-[(3S)-tetrahydrofuran-3-yl]imidazo[5,1-f][1,2,4]triazin-4-yl}-5,6,7,8-tetrahydropyrido[4,3-d]pyrimidine] | 0.177 nM | 0.277 nM
[2H]C([2H])([2H])n1c(C)nc2c(c1=O)CN(c1ncnn3c(C)nc([C@@H]4CCOC4)c13)CC2 [Example 128] |  | 1.62 nM
Cc1nc(-c2ccccc2F)c2c(N3CCc4nc(C5CC5)n(C)c(=O)c4C3)ncnn12 [Example 142, 2-cyclopropyl-6-[5-(2-fluorophenyl)-7-methylimidazo[5,1-f][1,2,4]triazin-4-yl]-3-methyl-5,6,7,8-tetrahydropyrido[4,3-d]pyrimidin-4(3H)-one] | 0.815 nM | 
Cc1nc2c(c(=O)n1C)CN(c1ncnn3c(C)nc([C@@H]4CCOC4)c13)CC2 [Example 127] | 0.484 nM | 
[2H]C([2H])([2H])Oc1nc(C)nc2c1CN(c1ncnn3c(C)nc([C@@H]4CCOC4)c13)CC2 [Example 132] | 0.174 nM | 
COc1nc(C2CC2)nc2c1CN(c1ncnn3c(C)nc(-c4ccccc4F)c13)CC2 [Example 135, 2-cyclopropyl-6-[5-(2-fluorophenyl)-7-methylimidazo[5,1-f][1,2,4]triazin-4-yl]-4-methoxy-5,6,7,8-tetrahydropyrido[4,3-d]pyrimidine] | 1.04 nM | 1 nM
